## Ab-95 light chain CDR variants: yeast mating affinities

All variants were tested on one target, the spike HR2 peptide PDVDLGDISGINAS (SARS-CoV-2).

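Phage display of a naive human antibody library on the peptide gave the parent. In library AAYL52, one, two or three CDR residues were substituted; doubles and triples were drawn at random. The scFvs were displayed on barcoded MATa yeast, the peptide on MATalpha yeast. After mating in shaken culture at 30 °C for 16 h, diploids were selected and their barcode pairs sequenced. The ratio of observed to expected reads was calibrated, replicate by replicate, on BCL2-family standards whose Kd was known from biolayer interferometry. Each pool was mated in three replicate cultures.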

Parent scFv Ab-95: VH joined to VL by a 15-residue (Gly4Ser)3 linker. Changes lie in the light chain CDRs alone.
VH: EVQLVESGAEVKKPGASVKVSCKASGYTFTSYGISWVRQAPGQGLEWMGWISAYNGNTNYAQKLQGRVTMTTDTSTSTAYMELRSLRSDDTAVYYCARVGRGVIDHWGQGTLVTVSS
VL: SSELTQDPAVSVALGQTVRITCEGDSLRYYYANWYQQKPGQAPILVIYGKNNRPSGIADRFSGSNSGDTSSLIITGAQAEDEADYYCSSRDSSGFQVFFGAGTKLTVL

Substitutions are numbered in sequence along the VL above, starting at 1 (not Kabat).
Every variant below is changed at G49 of the VL (sequential numbering).
Values are log10 of the apparent Kd in nM; lower means stronger binding.
Averages over replicates are reported, and they cover detected replicates only.
"nd" marks a missing value. The strain was present, yet no cells mated with the target were sequenced in any replicate, which points to weak or no binding.
Nonspecific signal, from three strains lacking the peptide, appeared in 28% of pairings of library AAYL52, centred on 3.91 (5% of these signals below 2.90); values are not corrected for it.
For reference, the parent read 2.31 as the reference entry and 2.25 as a member of this library.

For G24F+G49S+F98Q, the assay gave 3.98 (2 of 3 replicates).
For G49R+Q96H, the assay gave 3.89 (3 of 3 replicates).
For D25R+G49V+S93Q, the assay gave 4.50 (1 of 3 replicates).
For Y29W+G49L+S93Y, the assay gave 3.93 (1 of 3 replicates).
For N33W+G49I+R53W, the assay gave nd (0 of 3 replicates).
For G49W, the assay gave 2.81 (1 of 3 replicates).
For G49E+S92P+V97N, the assay gave 4.05 (2 of 3 replicates).
For G24W+G49E+S93P, the assay gave 3.83 (2 of 3 replicates).
For D25H+Y29S+G49E, the assay gave 3.06 (3 of 3 replicates).
For E23K+G49L, the assay gave 3.65 (1 of 3 replicates).
For D25W+G49M+N52K, the assay gave nd (0 of 3 replicates).
For G49V+S88E+S93E, the assay gave 4.83 (2 of 3 replicates).
For L27P+R28A+G49N, the assay gave 3.70 (2 of 3 replicates).
For L27C+G49W+S92G, the assay gave nd (0 of 3 replicates).
For G49E+N52P+S93K, the assay gave nd (0 of 3 replicates).
For E23W+N33D+G49I, the assay gave 4.86 (3 of 3 replicates).
For L27I+G49A, the assay gave 4.11 (1 of 3 replicates).
For E23S+G49A, the assay gave 2.99 (3 of 3 replicates).
For G49E+D91M+S92L, the assay gave 5.32 (1 of 3 replicates).
For R28I+G49N+S55N, the assay gave 2.87 (1 of 3 replicates).
For N33M+G49W+G94V, the assay gave nd (0 of 3 replicates).
For G49N+K50D+G94S, the assay gave 4.72 (2 of 3 replicates).
For D25K+G49D+N51F, the assay gave 4.16 (3 of 3 replicates).
For G49W+K50W+S88W, the assay gave 4.82 (2 of 3 replicates).
For G49I+K50F+F98M, the assay gave 3.63 (2 of 3 replicates).
For G49V+R53A+D91M, the assay gave 2.94 (2 of 3 replicates).
For Y29V+G49E+R53Q, the assay gave nd (0 of 3 replicates).
For G49E+R53I+R90S, the assay gave 3.85 (1 of 3 replicates).
For L27H+G49I+S89T, the assay gave 4.71 (3 of 3 replicates).
For G49P+D91H+V97R, the assay gave 3.17 (1 of 3 replicates).
For Y31K+G49P+F95C, the assay gave 4.42 (3 of 3 replicates).
For R28W+Y30V+G49E, the assay gave 3.24 (2 of 3 replicates).
For G49Y+N51G+R90S, the assay gave 4.03 (1 of 3 replicates).
For G49R+N52P+S92H, the assay gave 3.91 (1 of 3 replicates).
For G49W+R53V+S92H, the assay gave 3.65 (1 of 3 replicates).
For N33Y+G49Q+R90T, the assay gave 4.44 (1 of 3 replicates).
For A32G+G49D+G94D, the assay gave 4.06 (1 of 3 replicates).
For N33H+G49F+S88E, the assay gave 5.83 (1 of 3 replicates).
For R28H+G49Y+R90H, the assay gave 4.70 (1 of 3 replicates).
For D25E+Y29S+G49C, the assay gave nd (0 of 3 replicates).
For G49Y+R53L+Q96F, the assay gave nd (0 of 3 replicates).

Again, the first 3 entries without any signal:

changes,"mean, log10 nM",seen in
N33W+G49I+R53W,nd,0/3
D25W+G49M+N52K,nd,0/3
L27C+G49W+S92G,nd,0/3

Values reported by Engelhart et al. 2022, doi:10.1038/s41597-022-01779-4 (FLAb copy).